Ratio and TIME data for three compounds are collected here from ChEMBL document CHEMBL1129385, “Aspartic acid conjugates of 2-(3,4-dichlorophenyl)-N-methyl-N-[(1S)-1(3-aminophenyl)-2-(1-pyrrolidi nyl) ethyl]acetamide: kappa opioid receptor agonists with limited access to the central nervous system” (J Med Chem, 1996).

Amino acid sequences for entries named in this document (tags omitted). A change or cut given only in a name is not applied to a line headed by its entry.
UniProt P41143, whole entry, looked up: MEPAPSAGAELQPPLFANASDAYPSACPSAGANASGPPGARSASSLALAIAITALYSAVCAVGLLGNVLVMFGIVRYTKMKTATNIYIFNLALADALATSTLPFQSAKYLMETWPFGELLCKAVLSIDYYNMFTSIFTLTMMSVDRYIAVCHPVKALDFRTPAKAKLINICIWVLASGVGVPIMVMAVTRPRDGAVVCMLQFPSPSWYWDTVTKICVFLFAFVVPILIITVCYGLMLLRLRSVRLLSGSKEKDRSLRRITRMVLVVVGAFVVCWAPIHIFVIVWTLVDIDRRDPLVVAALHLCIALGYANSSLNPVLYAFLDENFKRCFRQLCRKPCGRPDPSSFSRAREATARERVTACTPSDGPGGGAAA
UniProt P35372, whole entry, looked up: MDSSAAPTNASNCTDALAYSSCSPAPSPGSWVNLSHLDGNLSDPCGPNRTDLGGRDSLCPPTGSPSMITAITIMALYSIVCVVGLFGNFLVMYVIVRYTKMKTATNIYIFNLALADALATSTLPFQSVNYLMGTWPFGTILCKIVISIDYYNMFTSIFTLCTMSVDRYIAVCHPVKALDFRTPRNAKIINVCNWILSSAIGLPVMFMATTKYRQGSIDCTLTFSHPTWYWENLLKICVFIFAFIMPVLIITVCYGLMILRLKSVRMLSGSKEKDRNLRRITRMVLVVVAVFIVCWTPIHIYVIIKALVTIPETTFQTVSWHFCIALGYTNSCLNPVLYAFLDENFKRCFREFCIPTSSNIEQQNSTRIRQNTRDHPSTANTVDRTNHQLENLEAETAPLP
UniProt P41145: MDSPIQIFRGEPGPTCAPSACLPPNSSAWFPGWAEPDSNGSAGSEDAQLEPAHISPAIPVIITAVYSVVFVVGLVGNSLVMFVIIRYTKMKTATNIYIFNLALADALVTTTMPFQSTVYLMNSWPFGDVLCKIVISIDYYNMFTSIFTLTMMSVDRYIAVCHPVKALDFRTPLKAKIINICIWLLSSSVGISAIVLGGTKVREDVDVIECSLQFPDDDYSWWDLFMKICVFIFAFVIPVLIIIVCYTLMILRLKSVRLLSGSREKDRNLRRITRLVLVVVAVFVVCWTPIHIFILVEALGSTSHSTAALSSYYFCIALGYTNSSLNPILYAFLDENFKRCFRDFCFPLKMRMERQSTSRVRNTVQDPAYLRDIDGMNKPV

Assay [1] concerns the target Delta-type opioid receptor (Homo sapiens) (UniProt P41143). In words: Compound was tested for the NTI Delta receptor Selectivity of Antinociception in the Mouse Abdominal Stretch Assay by using antagonists; ED50 ratio. The note with it: Abdomen.
Assay [2] addresses Mu-type opioid receptor (Homo sapiens) (UniProt P35372). In words: Compound was tested for the beta-FNA Mu receptors Selectivity of Antinociception in the Mouse Abdominal Stretch Assay by using antagonists; ED50 ratio. Particulars: Abdomen.
Assay [3] has as its target Kappa-type opioid receptor (Homo sapiens) (UniProt P41145). Kind of assay: Compound was tested for the nor-BNIb kappa receptors Selectivity of Antinociception in the Mouse Abdominal Stretch Assay by using antagonists; ED50 ratio. The note with it: Abdomen.
Assay [4] has as its system Mus musculus. In words: Peak time for Antinociception Tail-flick(min) by iv administration in mice;NE= no effect.
Assay [5] has as its system Mus musculus. In words: Peak time for Antinociception Tail-flick(min) by icv administration in mice;NE= no effect.

Activity calls are given as the source filed them. The rule behind the calls is not given here.

For `CN(C(=O)Cc1ccc(Cl)c(Cl)c1)[C@H](CN1CCCC1)c1cccc(NC(=O)[C@@H](N)CC(=O)O)c1`, the Ratio was 0.92 in assay [1], 2.86 in assay [2] and 5 in assay [3].

`CN(C(=O)Cc1ccc(Cl)c(Cl)c1)[C@H](CN1CCCC1)c1cccc(NC(=O)C[C@H](N)C(=O)O)c1`: the Ratio in assay [1] amounted to 1.01; in assay [2], 2.56; in assay [3] it was 7.14.

`CN(C(=O)Cc1ccc(Cl)c(Cl)c1)[C@H](CN1CCCC1)c1cccc(NC(=O)[C@H](N)CC(=O)O)c1`: the TIME entry in the assay on Mus musculus [4] and in the assay with Mus musculus [5] was “inactive” in each case. For the same compound, the Ratio stood at 0.55 in assay [1], 1.75 in assay [2] and 1.69 in assay [3].
